Assay results: ChEMBL document CHEMBL2331313, “Synthesis and SAR study of modulators inhibiting tRXRα-dependent AKT activation” (Eur J Med Chem, 2013)
Activity calls are given as the source filed them.

Tests used:
Format in all cases: cell-based
[1] = target: T1, Retinoic acid receptor RXR-alpha (Homo sapiens) (UniProt P19793); test: Inhibition of RXRalpha in human HepG2 cells assessed as inhibition of TNFalpha-induced Akt phosphorylation
T1 sequence (whole entry): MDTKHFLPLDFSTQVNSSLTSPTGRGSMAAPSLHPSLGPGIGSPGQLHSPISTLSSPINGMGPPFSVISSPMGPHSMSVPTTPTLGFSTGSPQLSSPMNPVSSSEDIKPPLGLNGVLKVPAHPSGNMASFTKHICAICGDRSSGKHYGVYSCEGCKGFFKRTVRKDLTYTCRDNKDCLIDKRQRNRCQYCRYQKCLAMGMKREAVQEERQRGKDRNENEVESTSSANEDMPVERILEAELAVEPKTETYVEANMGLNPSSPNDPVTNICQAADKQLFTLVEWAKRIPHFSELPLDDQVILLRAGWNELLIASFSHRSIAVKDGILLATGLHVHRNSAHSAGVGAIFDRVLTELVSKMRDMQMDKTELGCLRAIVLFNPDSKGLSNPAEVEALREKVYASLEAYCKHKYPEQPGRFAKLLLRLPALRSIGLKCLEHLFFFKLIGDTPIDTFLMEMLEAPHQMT

[2] = target: T1, Retinoic acid receptor RXR-alpha (Homo sapiens); test: Inhibition of RXRalpha in human A549 cells assessed as inhibition of TNFalpha-induced Akt phosphorylation at 30 uM incubated for 1 hr prior to TNFalpha-induction measured after 30 mins by Western blot analysis
In short: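 A549 cells (DMEM, 10% FBS) pretreated 1 hr with 30 μM compound, then TNFα (10 ng/mL) for 30 min. Phospho-AKT (1:1000) and total AKT (1:1000) immunoblotted after 10% SDS-PAGE, with ECL detection.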

[3] = target: T1, Retinoic acid receptor RXR-alpha (Homo sapiens); test: Inhibition of RXRalpha in human HCT116 cells assessed as inhibition of TNFalpha-induced Akt phosphorylation; conditions: HCT-116
[4] = target: T1, Retinoic acid receptor RXR-alpha (Homo sapiens); test: Antagonist activity at RXRalpha (unknown origin) expressed in HCT116 cells assessed as inhibition of 9-cis-RA-induced galactosidase activity after 12 hrs by gal4 reporter gene assay; conditions: HCT-116
In short: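 GAL4-RXRα-LBD transactivation in HCT-116 cells: cells transfected for 24 hr with pG5 luciferase reporter (50 ng/well) plus pGAL4-RXRα-LBD vector (50 ng/well), then exposed to 9-cis-RA (10^-7 M) together with varied compound concentrations for 12 hr. Luciferase read by dual-luciferase assay. Cells grown in DMEM with 10% FBS, 37°C, 5% CO2.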

Measured: inhibition

CC(C)c1ccc(/C=C2\C=C(CC(=O)O)c3cc(F)ccc32)cc1
active: [1] | [2] | [3] | [4] Dose-dependent effect
